In patent publication US9849185B2, “Benzoic acid, benzoic acid derivatives and heteroaryl carboxylic acid conjugates of hydromorphone, prodrugs, methods of making and use thereof” (priority 2011, dated 2017):
Structures can show the parent of a compound that is named as a salt.

Amino acid sequences for entries named in this document (tags omitted).
UniProt P35372, whole entry: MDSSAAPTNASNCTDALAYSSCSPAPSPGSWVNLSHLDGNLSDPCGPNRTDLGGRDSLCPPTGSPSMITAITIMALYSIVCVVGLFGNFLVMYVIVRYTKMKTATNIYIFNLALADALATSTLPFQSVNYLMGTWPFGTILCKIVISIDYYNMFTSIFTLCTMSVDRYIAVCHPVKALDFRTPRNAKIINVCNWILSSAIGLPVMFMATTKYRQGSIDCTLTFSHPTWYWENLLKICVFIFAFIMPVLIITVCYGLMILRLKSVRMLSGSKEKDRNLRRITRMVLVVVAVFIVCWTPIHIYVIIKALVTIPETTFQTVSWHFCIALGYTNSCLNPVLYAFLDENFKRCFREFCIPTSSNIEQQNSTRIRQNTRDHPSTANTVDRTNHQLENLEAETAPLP

Assays:
[1] = biological target: enteric μ-opioid receptors (Homo sapiens, UniProt P35372)
[2] = rat, escalating dosages

| SMILES | affinity to the enteric μ-opioid receptors [1] | exposure (AUC) to hydromorphone when dosed above the therapeutic level ([2]; oral solutions, result in words) | dosages that caused death of the test animals ([2]; oral) |
| --- | --- | --- | --- |
| CC(=O)Oc1ccccc1C(=O)OC1=CC[C@H]2[C@H]3Cc4ccc(OC(=O)c5ccccc5OC(C)=O)c5c4[C@@]2(CCN3C)[C@H]1O5 [3,6-di-Aspirin-HM, 3,6-di-aspirin-hydromorphone] | insignificant affinity | reached a plateau | – |
| CN1CCC23c4c5ccc(O)c4OC2C(=O)CCC3C1C5 (stereo not drawn) [hydromorphone hydrochloride, 4,5-α-epoxy-3-hydroxy-17-methylmorphinan-6-one, reference compound] | – | – | above 14 mg/kg |
